{"source": "patent US20130144250A1", "about": "“IMPLANTABLE DRUG DELIVERY COMPOSITIONS AND METHODS OF TREATMENT THEREOF” (Endo Pharmaceuticals Solutions Inc., priority 2011, published 2013)", "origin": "cited, not measured here", "settings": "oral dosage; cited from earlier work"}
{"smiles": "Cc1nc2n(c(=O)c1CCN1CCC(c3noc4cc(F)ccc34)CC1)CCCC2", "note": "[Risperidone, 4-[2-[4-(6-fluorobenzo[d]isoxazol-3-yl)-1-piperidyl]ethyl]-3-methyl-2,6-diazabicyclo[4.4.0]deca-1,3-dien-5-one]", "values": [{"measurement": "Bioavailability", "value": "~70", "unit": "%"}]}
